From patent US9426989B2 (priority 2010, dated 2016)

Experiment: Stability of the compounds assessed by NMR (PBS, MEM)

**Q.** Which Degradation (MEM: 24 hours, 5° C.) does the source give for `CCC(OO)OO` here?
**A.** <5%

**Q.** And the Degradation (MEM: 24 hours, 25° C.)?
**A.** 15%

**Q.** What about the Degradation (MEM: 24 hours, 37° C.) of the same compound?
**A.** 43%

**Q.** What about the Degradation (PBS: 16 hours, 2-8° C., then 3 hours at 37° C.) of the same compound?
**A.** 40%

Only a part of the results on these compounds is given; other tests are left out.
